One substance from article PMC2697266 (Nature, 2009) can be followed below.

This test deals with T1, JARID1APHD3 (Homo sapiens, UniProt P29375).
T1 sequence (P29375 1607-1661 limits assumed): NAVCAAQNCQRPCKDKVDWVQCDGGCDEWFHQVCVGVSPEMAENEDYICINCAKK
As to the kind of experiment: Biotinylated histone peptide pull-down, JARID1APHD3. Type of test: binding. The settings on record: 50mM Tris pH 7.5, 150mM NaCl (250mM as stringent washing), 0.05% NP-40, 0.3mg/ml BSA, 1mM DTT; qualitative.

For the substance “H3K4me2: Histone H3 peptide dimethylated at Lys4”, the “interaction with JARID1APHD3 in peptide pull-down” value is “interacted”.
